# From PMC3897212 (Journal of pharmacokinetics and pharmacodynamics, 2013)
# Read-outs that look alike come from different tables or passages of the source. Marks after values point to notes of the source that are not given here.
# Experiments:
# [1] = human plasma, cited from earlier work
# [2] = Time course tissue distribution / pharmacokinetic study in mice; assay type: in vivo, female FVB mice; conditions: for AUC(0-t): 60 mg/kg; for CL: mouse plasma, observed
smiles,measurement,setting,value
"CS(=O)(=O)CCNCc1ccc(-c2ccc3ncnc(Nc4ccc(OCc5cccc(F)c5)c(Cl)c4)c3c2)o1 [lapatinib, N-{3-chloro-4-[(3-fluorobenzyl)oxy]phenyl}-6-[5-({[2-(methylsulfonyl)ethyl]amino}methyl)-2-furyl]-4-quinazolinamine]",Observed t1/2,"[1]; 25 mg multiple dose, healthy, fasted, geometric mean",7.9 ^a (6.4–9.8) h
same,Observed t1/2,"[1]; 50 mg single dose, healthy, fasted, geometric mean",6.0 ^a (4.8–7.5) h
same,Observed t1/2,"[1]; 100 mg single dose, healthy, fasted, geometric mean",6.3 ^a (5.6–7.0) h
same,Observed AUC∞,"[1]; 100 mg single dose, healthy, not fasted, geometric mean (range)","2,459 (2,062–2,933) ^b nM × h"
same,Observed t1/2,"[1]; 100 mg single dose, healthy, not fasted, geometric mean",9.6 ^a (8.5–10.7) h
same,Observed AUCτ,"[1]; 175 mg multiple dose, cancer, fasted, geometric mean","9,431 nM × h"
same,Observed t1/2,"[1]; 175 mg single dose, healthy, fasted, geometric mean",8.2 ^a (6.7–9.9) h
same,Observed t1/2,"[1]; 250 mg single dose, healthy, fasted, geometric mean",8.8 ^a (6.6–11.7) h
same,Observed t1/2,"[1]; 250 mg single dose, healthy, not fasted, geometric mean",10.2 ^a (9.24–11.3) h
same,Observed AUCτ,"[1]; 375 mg multiple dose, cancer, fasted, geometric mean","9,878 nM × h"
same,Observed AUCτ,"[1]; 675 mg multiple dose, cancer, fasted, geometric mean","23,578 nM × h"
same,Observed AUCτ,"[1]; 900 mg multiple dose, cancer, fasted, geometric mean","21,857 nM × h"
same,Observed t1/2,"[1]; 900 mg multiple dose, cancer, fasted, median",23.1 ^b (9.8–38.2) h
same,Observed t1/2,"[1]; 900 mg single dose, cancer, fasted, median",12.9 ^b (10.1–18.3) h
same,Observed AUCτ,"[1]; 1,200 mg multiple dose, cancer, fasted, geometric mean","29,773 nM × h"
same,Observed AUCτ,"[1]; 1,250 mg multiple dose, cancer, not fasted, mean (90 % CI)","62,300 (40,271–96,376) ^a nM × h"
same,Observed AUCτ,"[1]; 1,600 mg multiple dose, cancer, fasted, geometric mean","39,067 ^b nM × h"
same,Observed t1/2,"[1]; 1,600 mg multiple dose, cancer, fasted, median (95 % CI)",26.2 (12.9–48.3) h
same,Observed t1/2,"[1]; 1,600 mg single dose, cancer, fasted, median",13.9 ^b (9.6–18.0) h
same,Observed AUCτ,"[1]; 1,800 mg multiple dose, cancer, fasted, geometric mean","47,671 ^b nM × h"
same,Observed t1/2,"[1]; 1,800 mg multiple dose, cancer, fasted, median (95 % CI)",21.8 (18.5–104.5) h
same,Cmax,"[1]; read-out: Observed Cmax, 100 mg single dose, healthy, not fasted, geometric mean (range)",198 nM
same,half-life,"[2]; female, FVB, mouse, brain, po, 30 mg/kg",3.7 h
same,AUC(0-t),"[2]; female, FVB, mouse, liver, po",157 µM·h
same,AUC(0-t),"[2]; female, FVB, mouse, lung, po",234 µM·h
same,CL,[2]; 30 mg/kg p.o.,0.09 L/h
same,CL,[2]; 60 mg/kg p.o.,0.09 L/h
same,CL,[2]; 90 mg/kg p.o.,0.06 L/h
